Assay results from patent US20070149404A1, “Microbicidal compositions” (BASF AKTIENGESELLSCHAFT, priority 2003, published 2007).

Assay: Solubility in water at room temperature

In the case of “(1RS, 5RS;1RS, 5SR)-5- (4-chlorobenzyl)-2,2-di- methyl-1-(1H-1,2,4-tri- azol-1-ylmethyl)cyclo- pentanol [Metconazole]”, the “Aq. Solubility (ppm)” value is reported as 15 ppm.
